## Ab-14 light chain CDR variants: yeast mating affinities

Values reported by Li et al. 2023, doi:10.1038/s41467-023-39022-2 (FLAb copy).

Target: peptide PDVDLGDISGINAS, taken from heptad repeat 2 (HR2) of SARS-CoV-2 spike.

The variants keep the heavy chain, the linker and the frameworks of Ab-14 (scFv order VH, three GGGGS repeats, VL).
VH: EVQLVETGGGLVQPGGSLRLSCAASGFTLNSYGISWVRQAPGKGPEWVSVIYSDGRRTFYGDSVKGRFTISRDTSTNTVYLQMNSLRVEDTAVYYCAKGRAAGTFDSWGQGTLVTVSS
VL: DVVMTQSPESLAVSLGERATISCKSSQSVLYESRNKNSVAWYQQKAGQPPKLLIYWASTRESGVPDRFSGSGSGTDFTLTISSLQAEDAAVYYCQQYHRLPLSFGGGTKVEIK

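Phage display of a naive human antibody library on the peptide gave the parent. Designed CDR sequences, proposed from the first random library and measured here. Their group label is 14L_En_Gen (En: ensemble of fine-tuned language models; Gen: genetic algorithm). Affinity was read by AlphaSeq, a pooled yeast mating assay with surface-displayed partners. Binding brings cells together so that they mate, and sequencing counts the barcode pairs among the diploids. Read counts were normalised to the haploid input and turned into Kd by a linear fit to BCL2-family pairs of known affinity, for each replicate. Mating was done six times.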

The parent's light chain CDRs are KSSQSVLYESRNKNSVA, WASTRES, QQYHRLPLS; each variant's own CDRs replace them letter for letter.
Scale: log10 of Kd in nM, estimated from mating counts; low values are strong binders.
An entry "nd" has no value in the source: the pair was not observed among the diploids in that replicate. This suggests poor binding but is not conclusive.
In the paper, a design with two or fewer of six values counts as a poor binder.
As a blank, each scFv also met three strains without target: over all light chain designs, 4% of these pairings were detected, typically at 2.64 and seldom below 1.59. Also given: how often the same scFv was detected with the empty control strains, with their mean in brackets.
The range of this assay differs from that of the first round, and the authors advise against merging the two.

CDR-L1	CDR-L2	CDR-L3	log10 Kd (nM) by replicate	empty controls
MMSQVWGSGQRHRNNVA	QTSTREP	QQYDRLPLI	0.46 0.83 0.33 0.48 0.49 0.81	2/18 (2.59)
HITYGMMVHGRHAKSIA	QAETRAK	QQYDRLPLA	0.45 0.47 1.33 0.77 0.72 1.33	2/18 (2.27)
MISQLTNMGTFAINSVA	QASIRNS	QQYDRLPLM	1.96 1.57 1.71 0.83 1.72 1.71	0/18
KLGMYLNTLYEKADNVA	DLVEREN	QQYHRLPLS	0.94 0.71 0.62 0.89 0.74 0.90	3/18 (2.80)
MISGVMKSLSAHMNSVA	DMTNREN	QQYDRLPLS	1.38 0.65 0.75 0.69 1.41 0.69	1/18 (2.30)
TISGMSNNATSKHNSVA	NVTMRPD	QQYHRLPLS	2.30 1.46 0.81 1.42 1.89 0.96	0/18
KLGMTLNQLMHKKNNVA	DLVERAN	QQYHRLPLS	0.50 0.59 0.06 0.50 0.26 0.54	0/18
QLSMLTGHVSMSKNNVA	EMETREN	QQYDRLPLS	1.55 0.65 1.17 0.56 1.14 1.36	0/18
KVSEFMRGLMQLKDSIA	DNVTRNK	QQYDRLPLS	2.04 1.82 1.89 1.73 1.17 1.42	0/18
TLYGLTNSMSKNKDSVA	EMSTREA	QQYDRLPLV	0.80 0.59 0.84 0.52 0.65 1.00	1/18 (2.89)
MMSQVTGLGQRHRNNVA	QTETREP	QQYDRLPLI	1.73 0.98 0.86 1.32 0.89 1.38	2/18 (3.43)
KISSMVRVGSTHSNSIA	EEATRAK	QQYHRLPLA	nd 0.76 0.68 1.25 1.04 1.32	0/18
KLSGLMASSKFAKDNVA	ENNTREK	QQYERLPLS	3.05 2.83 3.35 2.34 2.32 3.23	3/18 (3.33)
HMSALTLMGSRQRNSVA	QMTTREN	QQYDRLPLI	0.68 1.22 0.97 1.66 1.95 1.36	0/18
KLSQITGHLSVSKNNVA	EMVTRVN	QQYARLPLS	0.14 -0.21 -0.01 0.23 -0.03 0.11	0/18
MVSQLMVWGMHTKNSIA	EAQTRIN	QQYDRLPLF	2.76 nd 1.05 1.58 2.06 1.28	0/18
MMSQVTGQGQRHRNNVA	QTETREP	QQYDRLPLI	0.65 0.39 0.35 0.47 0.36 0.81	3/18 (2.68)
IVSQLMLWGYHAKNSIA	EAQMRLN	QQYDRLPLI	nd nd nd nd 1.10 nd	1/18 (0.33)
TISQITSLFSQTTNNVA	EVSTREN	QQYDRLPLS	1.09 1.41 0.62 0.45 0.61 1.19	0/18
MVSQLMLWGLHYKNSIA	EAVTRLN	QQYDRLPLF	nd 2.27 nd nd 2.28 nd	1/18 (2.76)
KISQMVRVGATVSNSIA	EEVTRAN	QQYHRLPLA	0.91 0.76 0.67 0.53 0.44 0.69	0/18
TLSQMSGVESVKRNNVA	ENSTREK	QQYDRLPLT	2.72 2.70 3.34 nd 2.90 3.42	0/18
TISGVMQQMSHSKSNVA	EVSMRLD	QQYFRLPLE	0.93 0.80 0.68 0.63 1.26 0.45	1/18 (1.57)
MISQLMNMGQFAINSVA	QANIRNA	QQYDRLPLA	1.34 1.22 1.45 1.03 1.49 1.39	3/18 (2.89)
TIGGTLMYGSRNRSNVA	EVSQRLN	QQYDRLPLL	1.48 1.31 1.61 1.19 1.68 1.77	0/18
MMSQVTGLGQRTRNNVA	QTSTREE	QQYDRLPLI	0.41 0.64 0.85 0.64 0.96 0.43	0/18
TISQMTSWMSNLKNNVA	EVSTREN	QQYDRLPLS	1.07 1.24 1.32 0.76 0.79 1.10	1/18 (1.58)
TLYGLSNSMSINKNNVA	EMSTREP	QQYDRLPLI	0.76 0.32 0.47 0.39 0.48 0.94	0/18
TISQITSLFSQTINNVA	EVSTREE	QQYDRLPLA	0.55 0.27 0.56 0.25 0.18 0.53	1/18 (2.91)
TIQQMMSLFSQTINNVA	EVSTRLN	QQYDRLPLS	2.55 2.52 1.17 2.23 1.26 nd	0/18
IVSQMMLWGLHAKNSIA	EAVTRLN	QQYDRLPLF	nd nd nd nd 1.10 2.07	0/18
SISMLLNFESKIGNNVA	QMETRIN	QQYDRLPLS	2.03 2.77 nd 2.27 1.71 2.99	1/18 (1.85)
KISMLINQTFEESNNVA	EMVTREK	QQYNRLPLS	1.65 1.54 2.32 2.16 1.49 1.61	4/18 (2.37)
MISQLYNMGQFAINSVA	QASQRSE	QQYDRLPLI	1.54 1.61 1.16 1.95 0.66 1.17	2/18 (1.47)
MLSQMWALGMKVSNSVA	QASMRFN	QQYDRLPLI	nd nd 1.29 nd nd 2.23	0/18
KITATMRFEQKASNNIA	EVTLRSK	QQYYRLPLS	0.93 0.83 0.80 1.28 1.06 1.17	0/18
HITYGMNVAGRHSSSIA	QAETREK	QQYDRLPLS	0.52 0.74 0.35 0.53 1.54 0.82	1/18 (1.83)
KVSEFMKGLMMRTDSIA	DNNTRDS	QQYDRLPLS	nd nd 2.10 2.46 2.26 1.92	0/18
MVNGIMDHLSKQTNNVA	ETTTRES	QQYDRLPLS	0.66 0.46 0.39 1.01 1.25 0.61	0/18
KVSEFMRGLMQRKDSIA	DNETRNS	QQYDRLPLS	2.16 2.12 1.96 2.60 1.90 2.05	0/18
KISYLQNQTFEQSNNVA	EMATREN	QQYDRLPLS	1.09 1.89 nd 2.60 1.60 nd	2/18 (1.58)
MISNVMNTLSRYGNNVA	DLTEREK	QQYFRLPLS	0.87 1.15 0.64 0.80 0.55 0.80	0/18

5 of these entries, quoted again:

{"CDR-L1": "SISMLLNFESKIGNNVA", "CDR-L2": "QMETRIN", "CDR-L3": "QQYDRLPLS", "log10 Kd (nM) by replicate": "2.03 2.77 nd 2.27 1.71 2.99", "empty controls": "1/18 (1.85)"}
{"CDR-L1": "TLSQMSGVESVKRNNVA", "CDR-L2": "ENSTREK", "CDR-L3": "QQYDRLPLT", "log10 Kd (nM) by replicate": "2.72 2.70 3.34 nd 2.90 3.42", "empty controls": "0/18"}
{"CDR-L1": "MISQLTNMGTFAINSVA", "CDR-L2": "QASIRNS", "CDR-L3": "QQYDRLPLM", "log10 Kd (nM) by replicate": "1.96 1.57 1.71 0.83 1.72 1.71", "empty controls": "0/18"}
{"CDR-L1": "KLSQITGHLSVSKNNVA", "CDR-L2": "EMVTRVN", "CDR-L3": "QQYARLPLS", "log10 Kd (nM) by replicate": "0.14 -0.21 -0.01 0.23 -0.03 0.11", "empty controls": "0/18"}
{"CDR-L1": "KVSEFMRGLMQRKDSIA", "CDR-L2": "DNETRNS", "CDR-L3": "QQYDRLPLS", "log10 Kd (nM) by replicate": "2.16 2.12 1.96 2.60 1.90 2.05", "empty controls": "0/18"}